In ChEMBL document CHEMBL1134591, “N-Aryl sulfonyl homocysteine hydroxamate inhibitors of matrix metalloproteinases: further probing of the S(1), S(1)', and S(2)' pockets” (J Med Chem, 2001):

Biological target: Collagenase 3 (Homo sapiens, UniProt P45452)
Test: In vitro inhibition of human matrix metalloprotease-13

COc1ccc(S(=O)(=O)N(CC(C)C)C(CCSCc2ccc(OCc3ccccc3)cc2)C(=O)NO)cc1 (stereo unspecified)
IC50: 20 nM
